The data set in a line: Intrinsic clearance in CD-1 mouse at 0.5 mg/kg, iv. The following applies: in vivo. It counts as ADME, organism-based.

This is an account of results in ChEMBL document CHEMBL5550128, “Discovery and preclinical evaluations of TQB3616, a novel CDK4-biased inhibitor” (Bioorg Med Chem Lett, 2024).

As to `CCN1CCN(Cc2ccc(Nc3ncc(F)c(-c4cc(F)c5nc(C)n(C(C)C)c5c4)n3)nc2)CC1` [ABEMACICLIB], the CL amounted to 32.9 mL/min/kg.
